Chains of the proteins cited; added tags and fusions are not shown. Lines headed by an entry give the natural chain unless they say otherwise; changes in a name come on top.
UniProt P53667: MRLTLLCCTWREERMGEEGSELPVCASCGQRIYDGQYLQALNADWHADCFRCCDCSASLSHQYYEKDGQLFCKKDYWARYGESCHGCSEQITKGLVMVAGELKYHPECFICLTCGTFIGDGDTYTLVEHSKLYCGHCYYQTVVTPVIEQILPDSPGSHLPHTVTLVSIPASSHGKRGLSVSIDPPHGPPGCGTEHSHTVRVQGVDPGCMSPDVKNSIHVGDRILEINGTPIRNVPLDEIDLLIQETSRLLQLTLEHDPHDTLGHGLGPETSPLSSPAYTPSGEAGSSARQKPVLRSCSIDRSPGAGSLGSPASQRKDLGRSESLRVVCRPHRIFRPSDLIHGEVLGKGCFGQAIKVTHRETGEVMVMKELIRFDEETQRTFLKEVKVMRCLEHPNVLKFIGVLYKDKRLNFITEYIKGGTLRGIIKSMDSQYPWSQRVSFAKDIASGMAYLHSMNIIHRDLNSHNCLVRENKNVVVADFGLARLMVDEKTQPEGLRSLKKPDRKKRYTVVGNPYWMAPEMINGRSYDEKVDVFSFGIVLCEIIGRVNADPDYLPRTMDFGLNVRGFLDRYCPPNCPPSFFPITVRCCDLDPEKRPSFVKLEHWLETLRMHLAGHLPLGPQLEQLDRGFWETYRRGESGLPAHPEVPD
UniProt P27448: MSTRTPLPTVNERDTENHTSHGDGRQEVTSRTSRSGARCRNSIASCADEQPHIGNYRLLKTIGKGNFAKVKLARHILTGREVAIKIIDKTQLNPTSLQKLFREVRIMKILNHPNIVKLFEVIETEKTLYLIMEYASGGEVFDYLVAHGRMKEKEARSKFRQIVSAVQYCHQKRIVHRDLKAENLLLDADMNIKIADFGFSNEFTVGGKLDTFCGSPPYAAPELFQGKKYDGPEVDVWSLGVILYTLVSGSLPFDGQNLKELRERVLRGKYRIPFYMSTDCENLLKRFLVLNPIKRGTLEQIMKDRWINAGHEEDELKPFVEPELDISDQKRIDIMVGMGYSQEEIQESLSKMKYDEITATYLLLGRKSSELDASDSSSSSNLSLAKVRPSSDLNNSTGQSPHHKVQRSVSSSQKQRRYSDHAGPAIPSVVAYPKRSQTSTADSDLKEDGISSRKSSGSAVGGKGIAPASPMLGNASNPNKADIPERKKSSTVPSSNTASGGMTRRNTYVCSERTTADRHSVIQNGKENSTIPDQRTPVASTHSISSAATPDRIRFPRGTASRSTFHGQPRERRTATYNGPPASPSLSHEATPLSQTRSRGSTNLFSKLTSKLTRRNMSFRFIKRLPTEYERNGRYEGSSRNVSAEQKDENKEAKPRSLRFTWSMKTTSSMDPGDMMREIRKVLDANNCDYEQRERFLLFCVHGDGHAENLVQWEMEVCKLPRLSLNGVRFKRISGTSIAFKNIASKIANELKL
UniProt Q15375: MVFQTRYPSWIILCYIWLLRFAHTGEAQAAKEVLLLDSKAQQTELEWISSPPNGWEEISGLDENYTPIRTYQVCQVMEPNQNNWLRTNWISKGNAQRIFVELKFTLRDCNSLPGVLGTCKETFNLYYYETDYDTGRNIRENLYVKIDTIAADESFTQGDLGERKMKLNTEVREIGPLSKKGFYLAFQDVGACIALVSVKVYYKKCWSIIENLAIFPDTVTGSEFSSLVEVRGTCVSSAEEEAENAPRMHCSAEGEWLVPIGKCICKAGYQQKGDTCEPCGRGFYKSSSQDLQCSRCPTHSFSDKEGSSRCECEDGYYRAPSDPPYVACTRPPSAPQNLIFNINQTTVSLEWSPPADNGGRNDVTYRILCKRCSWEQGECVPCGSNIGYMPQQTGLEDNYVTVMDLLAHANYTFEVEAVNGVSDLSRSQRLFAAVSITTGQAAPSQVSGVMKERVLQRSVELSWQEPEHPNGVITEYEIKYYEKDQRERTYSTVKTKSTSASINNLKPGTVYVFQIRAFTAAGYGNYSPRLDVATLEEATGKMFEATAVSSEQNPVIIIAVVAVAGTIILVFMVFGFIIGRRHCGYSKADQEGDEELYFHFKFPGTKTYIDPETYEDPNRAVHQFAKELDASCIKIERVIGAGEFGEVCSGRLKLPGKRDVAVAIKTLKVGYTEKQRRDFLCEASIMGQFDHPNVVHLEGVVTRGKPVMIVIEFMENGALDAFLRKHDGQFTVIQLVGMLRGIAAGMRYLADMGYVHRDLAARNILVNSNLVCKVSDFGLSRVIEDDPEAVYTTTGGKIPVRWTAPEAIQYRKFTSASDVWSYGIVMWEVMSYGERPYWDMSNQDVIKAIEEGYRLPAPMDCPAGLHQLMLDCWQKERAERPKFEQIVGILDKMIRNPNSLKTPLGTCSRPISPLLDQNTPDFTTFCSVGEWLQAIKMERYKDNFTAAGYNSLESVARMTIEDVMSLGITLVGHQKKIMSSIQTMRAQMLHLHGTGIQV
UniProt Q5S007: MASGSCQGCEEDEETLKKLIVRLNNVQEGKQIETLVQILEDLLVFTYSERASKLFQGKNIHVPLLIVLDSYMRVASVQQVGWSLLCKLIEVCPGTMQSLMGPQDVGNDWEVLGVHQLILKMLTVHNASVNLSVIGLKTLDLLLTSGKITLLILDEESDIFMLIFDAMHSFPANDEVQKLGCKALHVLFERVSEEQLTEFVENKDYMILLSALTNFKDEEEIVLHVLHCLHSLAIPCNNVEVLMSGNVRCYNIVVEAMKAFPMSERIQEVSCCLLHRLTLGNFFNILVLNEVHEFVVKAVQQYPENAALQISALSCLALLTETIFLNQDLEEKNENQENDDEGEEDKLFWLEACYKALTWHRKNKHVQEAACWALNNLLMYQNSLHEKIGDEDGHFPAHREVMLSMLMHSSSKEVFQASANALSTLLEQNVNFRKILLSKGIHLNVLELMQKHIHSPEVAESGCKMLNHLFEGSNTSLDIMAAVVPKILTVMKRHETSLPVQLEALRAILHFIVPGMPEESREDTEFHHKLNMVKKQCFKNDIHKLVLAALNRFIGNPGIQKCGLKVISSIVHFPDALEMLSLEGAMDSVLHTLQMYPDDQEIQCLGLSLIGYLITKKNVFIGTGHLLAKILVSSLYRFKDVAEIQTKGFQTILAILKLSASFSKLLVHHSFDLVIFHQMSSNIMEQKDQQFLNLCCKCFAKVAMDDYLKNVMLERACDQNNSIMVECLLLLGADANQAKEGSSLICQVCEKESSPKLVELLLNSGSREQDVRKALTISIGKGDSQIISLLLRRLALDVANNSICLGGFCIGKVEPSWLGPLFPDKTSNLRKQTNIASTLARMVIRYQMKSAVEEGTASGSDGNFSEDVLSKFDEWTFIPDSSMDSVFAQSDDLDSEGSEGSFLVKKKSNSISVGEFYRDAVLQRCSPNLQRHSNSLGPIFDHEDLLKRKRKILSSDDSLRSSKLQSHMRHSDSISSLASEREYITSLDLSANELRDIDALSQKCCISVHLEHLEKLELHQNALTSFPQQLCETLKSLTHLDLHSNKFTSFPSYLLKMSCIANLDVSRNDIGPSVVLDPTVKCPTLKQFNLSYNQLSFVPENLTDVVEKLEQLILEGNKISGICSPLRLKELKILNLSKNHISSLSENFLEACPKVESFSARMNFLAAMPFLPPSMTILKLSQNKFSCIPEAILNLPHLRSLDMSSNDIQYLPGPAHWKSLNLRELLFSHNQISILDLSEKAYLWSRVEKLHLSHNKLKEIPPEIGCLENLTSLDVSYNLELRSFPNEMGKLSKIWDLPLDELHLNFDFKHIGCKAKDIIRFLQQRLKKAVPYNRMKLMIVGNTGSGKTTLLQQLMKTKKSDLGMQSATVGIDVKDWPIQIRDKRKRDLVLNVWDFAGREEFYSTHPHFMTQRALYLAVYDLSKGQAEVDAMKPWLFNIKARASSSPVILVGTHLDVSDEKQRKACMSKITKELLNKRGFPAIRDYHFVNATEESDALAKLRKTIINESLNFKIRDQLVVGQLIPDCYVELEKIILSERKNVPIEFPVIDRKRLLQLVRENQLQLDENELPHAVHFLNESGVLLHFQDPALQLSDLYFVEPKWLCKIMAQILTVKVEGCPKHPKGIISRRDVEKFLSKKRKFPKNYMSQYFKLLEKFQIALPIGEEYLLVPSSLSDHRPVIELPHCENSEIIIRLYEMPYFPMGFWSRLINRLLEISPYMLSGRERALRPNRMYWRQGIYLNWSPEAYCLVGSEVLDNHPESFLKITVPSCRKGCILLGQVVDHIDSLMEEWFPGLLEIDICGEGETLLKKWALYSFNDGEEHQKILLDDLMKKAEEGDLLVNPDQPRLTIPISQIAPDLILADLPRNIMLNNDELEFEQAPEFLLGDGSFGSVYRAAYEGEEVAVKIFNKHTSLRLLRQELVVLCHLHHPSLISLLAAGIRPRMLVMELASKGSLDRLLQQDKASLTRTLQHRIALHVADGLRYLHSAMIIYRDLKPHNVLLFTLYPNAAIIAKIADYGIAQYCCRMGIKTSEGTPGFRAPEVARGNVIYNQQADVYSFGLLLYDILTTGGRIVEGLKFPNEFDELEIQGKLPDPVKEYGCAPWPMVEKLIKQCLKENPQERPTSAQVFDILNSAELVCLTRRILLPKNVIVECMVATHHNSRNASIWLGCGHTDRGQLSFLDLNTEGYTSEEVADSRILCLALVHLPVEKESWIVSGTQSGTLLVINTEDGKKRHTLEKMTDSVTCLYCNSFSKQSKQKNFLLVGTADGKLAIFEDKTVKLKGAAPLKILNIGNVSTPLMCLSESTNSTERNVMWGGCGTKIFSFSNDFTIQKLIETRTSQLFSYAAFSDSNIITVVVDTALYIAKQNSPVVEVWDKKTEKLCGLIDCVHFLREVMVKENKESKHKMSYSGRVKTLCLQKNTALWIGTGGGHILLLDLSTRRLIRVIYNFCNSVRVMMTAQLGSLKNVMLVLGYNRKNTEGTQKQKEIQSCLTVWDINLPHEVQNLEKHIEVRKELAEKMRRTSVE
UniProt Q13705: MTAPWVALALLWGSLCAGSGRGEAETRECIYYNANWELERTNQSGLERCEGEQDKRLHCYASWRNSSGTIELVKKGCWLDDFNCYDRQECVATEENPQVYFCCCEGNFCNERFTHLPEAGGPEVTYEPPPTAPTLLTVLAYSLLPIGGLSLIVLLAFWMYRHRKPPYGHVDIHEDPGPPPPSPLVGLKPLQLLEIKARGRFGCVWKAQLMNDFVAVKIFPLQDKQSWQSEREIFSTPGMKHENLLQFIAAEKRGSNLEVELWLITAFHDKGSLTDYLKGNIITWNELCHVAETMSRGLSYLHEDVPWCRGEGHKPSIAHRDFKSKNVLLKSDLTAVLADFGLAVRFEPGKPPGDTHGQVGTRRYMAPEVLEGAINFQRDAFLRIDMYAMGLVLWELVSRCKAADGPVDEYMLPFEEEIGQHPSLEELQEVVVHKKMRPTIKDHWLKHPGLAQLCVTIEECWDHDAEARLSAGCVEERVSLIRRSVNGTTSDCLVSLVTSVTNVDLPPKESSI
UniProt Q15208: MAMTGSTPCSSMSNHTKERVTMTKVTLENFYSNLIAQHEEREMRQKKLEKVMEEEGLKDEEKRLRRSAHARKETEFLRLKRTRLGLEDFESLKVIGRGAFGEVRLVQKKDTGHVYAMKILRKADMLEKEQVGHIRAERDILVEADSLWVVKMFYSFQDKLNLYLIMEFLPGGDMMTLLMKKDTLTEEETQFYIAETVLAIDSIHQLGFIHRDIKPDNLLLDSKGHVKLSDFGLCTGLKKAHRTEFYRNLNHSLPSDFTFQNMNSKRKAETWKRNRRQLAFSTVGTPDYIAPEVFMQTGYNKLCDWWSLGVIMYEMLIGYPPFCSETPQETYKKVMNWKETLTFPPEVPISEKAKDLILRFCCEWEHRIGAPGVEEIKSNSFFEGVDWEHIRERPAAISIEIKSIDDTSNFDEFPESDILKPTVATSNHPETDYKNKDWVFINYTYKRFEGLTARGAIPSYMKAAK
UniProt Q00535, whole entry, looked up: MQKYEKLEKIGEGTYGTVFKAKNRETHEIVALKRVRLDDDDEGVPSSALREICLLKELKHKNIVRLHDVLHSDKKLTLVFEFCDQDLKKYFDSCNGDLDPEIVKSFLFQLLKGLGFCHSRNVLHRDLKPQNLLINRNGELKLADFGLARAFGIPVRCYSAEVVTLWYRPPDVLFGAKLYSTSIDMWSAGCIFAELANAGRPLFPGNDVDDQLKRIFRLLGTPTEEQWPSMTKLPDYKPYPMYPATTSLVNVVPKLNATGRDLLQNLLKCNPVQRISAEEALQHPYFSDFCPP

According to the supplement of paper PMC11403291:

Experiments:
Experiment in all cases: apparent dissociation constant pKd app (kinobead competition) (-log10(M)); higher = stronger binding
[1] = biological target: T1, LATS1 (UniProt O95835)
T1 sequence (whole entry): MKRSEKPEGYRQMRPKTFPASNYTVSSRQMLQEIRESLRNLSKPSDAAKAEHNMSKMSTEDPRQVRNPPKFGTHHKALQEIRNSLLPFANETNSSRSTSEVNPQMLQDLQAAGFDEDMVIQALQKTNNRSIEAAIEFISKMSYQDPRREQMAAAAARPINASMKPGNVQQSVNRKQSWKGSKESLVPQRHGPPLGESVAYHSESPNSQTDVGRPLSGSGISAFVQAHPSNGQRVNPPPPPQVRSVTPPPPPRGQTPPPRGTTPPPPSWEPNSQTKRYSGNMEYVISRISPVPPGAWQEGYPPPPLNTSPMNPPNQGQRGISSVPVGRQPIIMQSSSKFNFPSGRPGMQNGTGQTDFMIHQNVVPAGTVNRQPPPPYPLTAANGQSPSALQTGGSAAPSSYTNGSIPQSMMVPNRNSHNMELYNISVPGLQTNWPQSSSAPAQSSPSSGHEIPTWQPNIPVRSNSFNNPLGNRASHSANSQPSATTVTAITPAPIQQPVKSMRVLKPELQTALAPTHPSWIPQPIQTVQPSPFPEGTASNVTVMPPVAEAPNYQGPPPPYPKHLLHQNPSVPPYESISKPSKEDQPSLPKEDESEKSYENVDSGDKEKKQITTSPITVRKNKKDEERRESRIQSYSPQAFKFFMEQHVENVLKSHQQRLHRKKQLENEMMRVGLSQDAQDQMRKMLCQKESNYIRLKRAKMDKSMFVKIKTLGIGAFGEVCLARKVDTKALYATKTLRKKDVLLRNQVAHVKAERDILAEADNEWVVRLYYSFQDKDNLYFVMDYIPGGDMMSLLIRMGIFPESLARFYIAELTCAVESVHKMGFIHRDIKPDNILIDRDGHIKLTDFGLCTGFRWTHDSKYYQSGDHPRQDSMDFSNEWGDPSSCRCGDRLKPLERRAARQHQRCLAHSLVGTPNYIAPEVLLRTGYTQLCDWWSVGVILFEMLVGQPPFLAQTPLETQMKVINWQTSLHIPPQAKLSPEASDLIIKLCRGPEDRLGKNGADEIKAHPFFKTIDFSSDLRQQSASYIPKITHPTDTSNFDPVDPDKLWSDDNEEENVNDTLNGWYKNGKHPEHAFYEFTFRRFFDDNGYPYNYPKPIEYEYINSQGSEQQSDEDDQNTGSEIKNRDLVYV

[2] = biological target: LIMK1 (UniProt P53667)
[3] = biological target: MAP4K5 (UniProt Q9Y4K4)
[4] = biological target: MARK3 (UniProt P27448)
[5] = biological target: EPHA7 (UniProt Q15375)
[6] = biological target: T2, ICK (UniProt Q9UPZ9)
T2 sequence (whole entry): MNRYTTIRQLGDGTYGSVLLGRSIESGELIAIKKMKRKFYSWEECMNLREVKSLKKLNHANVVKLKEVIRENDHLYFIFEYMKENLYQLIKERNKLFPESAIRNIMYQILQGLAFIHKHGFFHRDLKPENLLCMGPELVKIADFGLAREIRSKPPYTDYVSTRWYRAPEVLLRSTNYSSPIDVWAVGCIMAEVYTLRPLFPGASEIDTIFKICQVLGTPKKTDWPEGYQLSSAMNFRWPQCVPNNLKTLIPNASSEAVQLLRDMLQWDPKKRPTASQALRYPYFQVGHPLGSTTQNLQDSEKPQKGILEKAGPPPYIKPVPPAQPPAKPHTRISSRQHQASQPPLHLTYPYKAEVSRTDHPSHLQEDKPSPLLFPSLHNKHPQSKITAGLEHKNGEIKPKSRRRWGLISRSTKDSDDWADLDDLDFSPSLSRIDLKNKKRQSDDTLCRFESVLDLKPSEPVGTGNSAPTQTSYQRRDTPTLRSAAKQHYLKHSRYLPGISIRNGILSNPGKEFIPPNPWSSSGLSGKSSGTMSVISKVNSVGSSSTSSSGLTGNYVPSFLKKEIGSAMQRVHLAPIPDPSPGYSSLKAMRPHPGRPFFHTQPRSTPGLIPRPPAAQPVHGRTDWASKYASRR

[7] = biological target: LRRK2 (UniProt Q5S007)
[8] = biological target: T3, STK17B (UniProt O94768)
T3 sequence (whole entry): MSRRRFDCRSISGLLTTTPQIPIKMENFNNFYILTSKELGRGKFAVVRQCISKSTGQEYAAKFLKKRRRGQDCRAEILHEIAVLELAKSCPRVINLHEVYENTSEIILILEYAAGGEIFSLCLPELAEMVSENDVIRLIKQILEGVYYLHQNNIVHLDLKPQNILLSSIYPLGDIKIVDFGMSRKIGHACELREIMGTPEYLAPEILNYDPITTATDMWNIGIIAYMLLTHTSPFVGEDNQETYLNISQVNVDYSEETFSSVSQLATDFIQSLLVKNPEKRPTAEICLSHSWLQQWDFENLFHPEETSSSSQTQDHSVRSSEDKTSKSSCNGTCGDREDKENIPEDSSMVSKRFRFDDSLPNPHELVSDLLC

[9] = biological target: RIPK2 (UniProt O43353)
[10] = biological target: ACVR2B (UniProt Q13705)
[11] = biological target: MET (UniProt P08581)
[12] = biological target: STK38 (UniProt Q15208)
[13] = biological target: CDK5 (UniProt Q00535)

apparent dissociation constant pKd app (-log10) [1]	apparent dissociation constant pKd app (-log10) [2]	apparent dissociation constant pKd app (-log10) [3]	apparent dissociation constant pKd app (-log10) [4]	apparent dissociation constant pKd app (-log10) [5]	apparent dissociation constant pKd app (-log10) [6]	apparent dissociation constant pKd app (-log10) [7]	apparent dissociation constant pKd app (-log10) [8]	apparent dissociation constant pKd app (-log10) [9]	apparent dissociation constant pKd app (-log10) [10]	apparent dissociation constant pKd app (-log10) [11]	apparent dissociation constant pKd app (-log10) [12]	apparent dissociation constant pKd app (-log10) [13]	Structure (SMILES)
< 4.5	< 4.6	< 4.5	< 4.6	< 4.5	< 4.7	< 4.7	< 4.6	< 4.8	< 4.7	< 4.7	< 4.5	< 4.6	NC(=O)c1cccc2cn(-c3ccc([C@@H]4CCCNC4)cc3)nc12 [Niraparib]
< 4.5	< 4.6	< 4.5	< 4.6	< 4.5	< 4.7	< 4.7	< 4.6	< 4.8	< 4.7	< 4.7	< 4.5	< 4.6	O=C(c1cc(Cc2n[nH]c(=O)c3ccccc23)ccc1F)N1CCN(C(=O)C2CC2)CC1 [Olaparib]
< 4.5	< 4.6	< 4.5	< 4.6	< 4.5	< 4.7	< 4.7	< 4.6	< 4.8	< 4.7	< 4.7	< 4.5	< 4.6	Cn1ncnc1[C@H]1c2n[nH]c(=O)c3cc(F)cc(c23)N[C@@H]1c1ccc(F)cc1 [Talazoparib]
